Legend:
Details in all cases: equilibrium dissociation constant
[1] = biological target: T1, MLKL (full length) (Homo sapiens, UniProt Q8NB16); experiment: KINOMEscan binding affinity assay, MLKL
T1 construct: purchased DiscoverX (KINOMEscan service); host or cells: E. coli BL21-derived host (T7 phage) or HEK-293
T1 sequence (Q8NB16 1-471): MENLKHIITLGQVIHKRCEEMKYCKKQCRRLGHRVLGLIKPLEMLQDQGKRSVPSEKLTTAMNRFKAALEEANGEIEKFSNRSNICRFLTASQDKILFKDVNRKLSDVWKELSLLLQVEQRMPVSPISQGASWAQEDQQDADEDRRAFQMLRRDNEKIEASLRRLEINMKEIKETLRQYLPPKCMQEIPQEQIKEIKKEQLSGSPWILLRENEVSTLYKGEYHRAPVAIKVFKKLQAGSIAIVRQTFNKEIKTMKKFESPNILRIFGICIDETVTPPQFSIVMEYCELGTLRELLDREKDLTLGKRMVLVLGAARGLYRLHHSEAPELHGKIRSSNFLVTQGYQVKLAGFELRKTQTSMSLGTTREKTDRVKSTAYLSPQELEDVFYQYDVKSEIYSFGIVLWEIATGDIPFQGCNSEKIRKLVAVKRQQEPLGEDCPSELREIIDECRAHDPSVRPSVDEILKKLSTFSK

Sequences of proteins named here, by UniProt entry; tags and fusion partners are left off. A change or cut given only in a name is not applied to a line headed by its entry.
UniProt Q9Y572: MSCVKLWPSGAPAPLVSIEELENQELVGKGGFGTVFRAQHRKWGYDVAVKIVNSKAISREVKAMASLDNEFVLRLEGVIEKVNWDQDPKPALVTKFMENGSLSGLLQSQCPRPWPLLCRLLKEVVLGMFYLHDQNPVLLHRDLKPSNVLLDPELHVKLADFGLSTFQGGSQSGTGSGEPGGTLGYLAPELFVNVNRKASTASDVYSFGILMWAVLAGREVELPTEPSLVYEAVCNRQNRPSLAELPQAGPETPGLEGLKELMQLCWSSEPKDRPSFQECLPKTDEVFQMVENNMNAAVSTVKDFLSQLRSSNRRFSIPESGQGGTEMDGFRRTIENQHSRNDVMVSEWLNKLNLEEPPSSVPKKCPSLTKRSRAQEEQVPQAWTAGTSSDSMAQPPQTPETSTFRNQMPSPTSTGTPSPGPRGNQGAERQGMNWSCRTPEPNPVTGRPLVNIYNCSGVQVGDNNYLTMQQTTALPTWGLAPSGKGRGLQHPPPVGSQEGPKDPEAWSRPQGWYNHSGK

[2] = biological target: T2, RIP1 (Homo sapiens, UniProt Q13546); experiment: KINOMEscan binding affinity assay, RIP1
T2 construct: purchased DiscoverX (KINOMEscan service); host or cells: E. coli BL21-derived host (T7 phage) or HEK-293
T2 sequence (Q13546 1-671): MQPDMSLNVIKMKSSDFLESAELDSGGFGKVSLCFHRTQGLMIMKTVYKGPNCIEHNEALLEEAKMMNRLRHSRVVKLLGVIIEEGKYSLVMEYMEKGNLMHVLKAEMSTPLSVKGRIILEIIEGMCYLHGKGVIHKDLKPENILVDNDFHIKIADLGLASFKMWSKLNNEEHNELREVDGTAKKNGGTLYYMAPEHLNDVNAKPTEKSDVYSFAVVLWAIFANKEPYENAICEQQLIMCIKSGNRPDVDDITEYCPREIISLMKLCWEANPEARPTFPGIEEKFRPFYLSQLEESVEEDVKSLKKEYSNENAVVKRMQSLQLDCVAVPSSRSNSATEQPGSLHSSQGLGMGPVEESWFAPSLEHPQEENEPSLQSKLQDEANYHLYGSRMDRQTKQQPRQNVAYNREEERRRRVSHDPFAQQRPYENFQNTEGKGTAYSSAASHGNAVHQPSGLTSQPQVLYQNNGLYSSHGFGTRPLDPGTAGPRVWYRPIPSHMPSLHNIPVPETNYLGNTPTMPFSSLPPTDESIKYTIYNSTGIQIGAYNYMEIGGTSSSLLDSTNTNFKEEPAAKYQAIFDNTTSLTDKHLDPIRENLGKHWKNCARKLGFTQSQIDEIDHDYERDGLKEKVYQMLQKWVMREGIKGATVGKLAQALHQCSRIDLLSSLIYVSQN

[3] = biological target: T3, RIP3 (Homo sapiens, UniProt Q9Y572); experiment: KINOMEscan binding affinity assay, RIP3
T3 construct: purchased DiscoverX (KINOMEscan service); host or cells: E. coli BL21-derived host (T7 phage) or HEK-293

| Structure (SMILES) | Kd [1] [nM] | Kd [2] [nM] | Kd [3] [nM] |
| --- | --- | --- | --- |
| NC(=O)c1c(-c2ccc(NC(=O)Cc3cccs3)cc2)n[nH]c1Nc1ccccn1 [Compound 14, 5-(pyridin-2-ylamino)-3-(4-(2-(thiophen-2-yl)acetamido)phenyl)-1H-pyrazole-4-carboxamide] | > 1000 | > 1000 | > 1000 |
| COc1cc(Nc2[nH]nc(-c3ccc(NC(=O)N4CC(Cc5ccccc5)C4)cc3)c2C(N)=O)ccn1 [Compound 53, 3-(4-(3-benzylazetidine-1-carboxamido)phenyl)-5-((2-methoxypyridin-4-yl)amino)-1H-pyrazole-4-carboxamide] | < 100 | > 1000 | > 1000 |
| CN1CCN(c2c(Nc3ccc(-c4n[nH]c(Nc5ccccn5)c4C(N)=O)cc3)c(=O)c2=O)CC1 [Compound 124, 3-(4-((2-(4-methylpiperazin-1-yl)-3,4-dioxocyclobut-1-en-1-yl)amino)phenyl)-5-(pyridin-2-ylamino)-1H-pyrazole-4-carboxamide] | > 1000 | > 1000 | > 1000 |
| NC(=O)c1c(-c2ccc(NC(=O)N3CCc4ccccc4C3)cc2)n[nH]c1Nc1cnccn1 [Compound 101, N-(4-{4-carbamoyl-5-[(pyrazin-2-yl)amino]-1H-pyrazol-3-yl}phenyl)-1,2,3,4-tetrahydroisoquinoline-2-carboxamide] | < 100 | > 1000 | > 1000 |
| COc1cc(Nc2[nH]nc(-c3ccc(NC(=O)N4CCc5cc(C(F)(F)F)ccc5C4)cc3)c2C(N)=O)ccn1 [Compound 52, N-(4-(4-carbamoyl-5-((2-methoxypyridin-4-yl)amino)-1H-pyrazol-3-yl)phenyl)-6-(trifluoromethyl)-3,4-dihydroisoquinoline-2(1H)-carboxamide] | < 100 | > 1000 | > 1000 |
| NC(=O)c1c(-c2ccc(NC(=O)c3cnn(-c4ccc(Cl)cc4)c3)cc2)n[nH]c1Nc1cccc(C(F)(F)F)n1 [Compound 36, N-(4-(4-carbamoyl-5-((6-(trifluoromethyl)pyridin-2-yl)amino)-1H-pyrazol-3-yl)phenyl)-1-(4-chlorophenyl)-1H-pyrazole-4-carboxamide] | > 1000 | > 1000 | – |
| COc1cc(Nc2[nH]nc(-c3ccc(NC(=O)c4cnn(-c5ccccc5)c4)cc3)c2C(N)=O)ccn1 [Compound 38, N-(4-(4-carbamoyl-5-((2-methoxypyridin-4-yl)amino)-1H-pyrazol-3-yl)phenyl)-1-phenyl-1H-pyrazole-4-carboxamide] | < 100 | > 1000 | > 1000 |
| COc1cc(Nc2[nH]nc(-c3ccc(NC(=O)N4CCC[C@@H](c5ccccc5)C4)cc3)c2C(N)=O)ccn1 [Compound 60, (S)-N-(4-(4-carbamoyl-5-((2-methoxypyridin-4-yl)amino)-1H-pyrazol-3-yl)phenyl)-3-phenylpiperidine-1-carboxamide] | < 100 | 100 to 1000 | > 1000 |
| NC(=O)c1c(-c2ccc(NC(=O)Cc3ccccc3)cc2)n[nH]c1Nc1nc(Cl)ccc1F [Compound 41, 5-((6-chloro-3-fluoropyridin-2-yl)amino)-3-(4-(2-phenyl-acetamido)phenyl)-1H-pyrazole-4-carboxamide] | > 1000 | > 1000 | > 1000 |
| COc1ccccc1CC(=O)Nc1ccc(-c2n[nH]c(Nc3cnccn3)c2C(N)=O)cc1 [Compound 28, 3-(4-(2-(2-methoxyphenyl)acetamido)phenyl)-5-(pyrazin-2-ylamino)-1H-pyrazole-4-carboxamide] | 100 to 1000 | > 1000 | > 1000 |
| NC(=O)c1c(-c2ccc(NC(=O)N3CCCC(c4ccccc4)C3)cc2)n[nH]c1Nc1cnccn1 (stereo not drawn) [Compound 89, N-(4-(4-carbamoyl-5-(pyrazin-2-ylamino)-1H-pyrazol-3-yl)phenyl)-3-phenylpiperidine-1-carboxamide] | < 100 | < 100 | – |
| COc1cc(Nc2[nH]nc(-c3ccc(NC(=O)N4CCC[C@H]4c4ccccc4)cc3)c2C(N)=O)ccn1 [Compound 103, (S)-5-((2-methoxypyridin-4-yl)amino)-3-(4-(2-phenylpyrrolidine-1-carboxamido)phenyl)-1H-pyrazole-4-carboxamide] | < 100 | 100 to 1000 | – |
| COc1cc(Nc2[nH]nc(-c3ccc(NC(=O)N(C)CCc4ccccc4)cc3)c2C(N)=O)ccn1 [Compound 67, 5-((2-methoxypyridin-4-yl)amino)-3-(4-(3-methyl-3-phenethylureido)phenyl)-1H-pyrazole-4-carboxamide] | < 100 | > 1000 | – |
| COCCOc1cc(Nc2[nH]nc(-c3ccc(NC(C)=O)cc3)c2C(N)=O)ccn1 [Compound 16, 3-(4-acetamidophenyl)-5-((2-(2-methoxyethoxy)pyridin-4-yl)amino)-1H-pyrazole-4-carboxamide] | 100 to 1000 | > 1000 | – |
| NC(=O)c1c(-c2ccc(NC(=O)CC3CCCCC3)cc2)n[nH]c1Nc1ccccn1 [Compound 8, 3-(4-(2-cyclohexyl-acetamido)phenyl)-5-(pyridin-2-ylamino)-1H-pyrazole-4-carboxamide] | 100 to 1000 | > 1000 | – |
| NC(=O)c1c(-c2ccc(Nc3c(Nc4ccc(C(F)(F)F)cc4)c(=O)c3=O)cc2)n[nH]c1Nc1ccccn1 [Compound 125, 3-(4-((3,4-dioxo-2-((4-(trifluoromethyl)phenyl)amino)cyclobut-1-en-1-yl)amino)phenyl)-5-(pyridin-2-ylamino)-1H-pyrazole-4-carboxamide] | 100 to 1000 | > 1000 | – |
| NC(=O)c1c(-c2ccc(NC(=O)N3CCC[C@@H](c4ccc(F)cc4)C3)cc2)n[nH]c1Nc1cccc(C(F)(F)F)n1 [Compound 79, (S)-N-(4-(4-carbamoyl-5-((6-(trifluoromethyl)pyridin-2-yl)amino)-1H-pyrazol-3-yl)phenyl)-3-(4-fluorophenyl)piperidine-1-carboxamide] | > 1000 | > 1000 | – |
| COc1cccc(C2CCCN(C(=O)Nc3ccc(-c4n[nH]c(Nc5cnccn5)c4C(N)=O)cc3)C2)c1 (stereo not drawn) [Compound 97, N-(4-(4-carbamoyl-5-(pyrazin-2-ylamino)-1H-pyrazol-3-yl)phenyl)-3-(3-methoxyphenyl)piperidine-1-carboxamide] | < 100 | < 100 | – |
| NC(=O)c1c(-c2ccc(NC(=O)N3CCc4cc(C(F)(F)F)ccc4C3)cc2)n[nH]c1Nc1cnccn1 [Compound 100, N-(4-(4-carbamoyl-5-(pyrazin-2-ylamino)-1H-pyrazol-3-yl)phenyl)-6-(trifluoromethyl)-3.4-dihydroisoquinoline-2(1H)-carboxamide] | < 100 | > 1000 | – |
| COc1cc(Nc2[nH]nc(-c3ccc(NC(=O)N4CCC(c5ccc(C(F)(F)F)cc5)C4)cc3)c2C(N)=O)ccn1 (stereo not drawn) [Compound 70, 5-((2-methoxypyridin-4-yl)amino)-3-(4-(3-(4-(trifluoromethyl)phenyl)pyrrolidine-1-carboxamido)phenyl)-1H-pyrazole-4-carboxamide] | < 100 | > 1000 | – |
| COc1cc(Nc2[nH]nc(-c3ccc(NC(=O)N4CCC[C@H](c5ccccc5)C4)cc3)c2C(N)=O)ccn1 [Compound 61, (R)-N-(4-(4-carbamoyl-5-((2-methoxypyridin-4-yl)amino)-1H-pyrazol-3-yl)phenyl)-3-phenylpiperidine-1-carboxamide] | < 100 | < 100 | – |
